Values of other authors as cited in patent US8236785B2, “Method of treating or preventing infertility in a female mammal and pharmaceutical kit for use in such method” (Pantarhei Bioscience B.V., priority 2007, dated 2012).

Details: cited from earlier work

| Substance | in vivo half-life (t1/2) [h] | half-life (t1/2) (in vivo) [h] |
| --- | --- | --- |
| LH isolated from urine: luteinising hormone isolated from female urine | 0.167 to 0.333 |  |
| recLH: LH obtained from a recombinant cell line |  | 12 to 13 |
